Measurements: publication PMC8924211 (Nature Communications, 2022)
Where a chain is given by its changes, count along the chain named.

Assays:
Type in all cases: cell-based
GAL2R = molecular target: T1, GAL2R (Homo sapiens, UniProt O43603); assay: Calcium assay, HEK293/Gα16 cells, WT GAL2R; conditions: spexin, mean ± S.E.M.
T1 construct: expressed in transfected cells; host or cells: HEK293/Gα16
T1 sequence (O43603 1-387): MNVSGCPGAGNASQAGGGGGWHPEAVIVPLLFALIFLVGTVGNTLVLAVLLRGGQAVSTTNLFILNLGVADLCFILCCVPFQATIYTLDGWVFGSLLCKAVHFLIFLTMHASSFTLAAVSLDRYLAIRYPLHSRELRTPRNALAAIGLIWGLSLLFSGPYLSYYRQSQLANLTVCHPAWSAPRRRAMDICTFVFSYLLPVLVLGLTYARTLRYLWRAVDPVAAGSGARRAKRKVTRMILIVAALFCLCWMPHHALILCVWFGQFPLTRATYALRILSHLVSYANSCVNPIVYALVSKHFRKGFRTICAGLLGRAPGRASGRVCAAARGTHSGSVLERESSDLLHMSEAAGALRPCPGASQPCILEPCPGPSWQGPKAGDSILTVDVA

GAL2R mutants [1] = molecular target: T2, GAL2R mutants (Homo sapiens, UniProt O43603, L172A); assay: Calcium assay, HEK293/Gα16 cells, GAL2R mutants; conditions: GAL2R L172ECL2A; spexin, HEK293/Gα16; mean ± S.E.M.
T2 construct: expressed in transfected cells; host or cells: HEK293
T2 sequence (O43603 1-387 L172A): T1 sequence (O43603 1-387) with L172A

GAL2R mutants [2] = molecular target: T3, GAL2R mutants (Homo sapiens, UniProt O43603, Y164A); assay: Calcium assay, HEK293/Gα16 cells, GAL2R mutants; conditions: GAL2R Y1644.64A, spexin
T3 construct: expressed in transfected cells; host or cells: HEK293
T3 sequence (O43603 1-387 Y164A): T1 sequence (O43603 1-387) with Y164A

GAL2R mutants [3] = molecular target: T4, GAL2R mutants (Homo sapiens, UniProt O43603, L169A); assay: Calcium assay, HEK293/Gα16 cells, GAL2R mutants; conditions: GAL2R L169ECL2A, spexin
T4 construct: expressed in transfected cells; host or cells: HEK293
T4 sequence (O43603 1-387 L169A): T1 sequence (O43603 1-387) with L169A

GAL2R mutants [4] = molecular target: T5, GAL2R mutants (Homo sapiens, UniProt O43603, Y271A); assay: Calcium assay, HEK293/Gα16 cells, GAL2R mutants; conditions: GAL2R Y2717.32A; spexin, HEK293/Gα16; mean ± S.E.M.
T5 construct: expressed in transfected cells; host or cells: HEK293
T5 sequence (O43603 1-387 Y271A): T1 sequence (O43603 1-387) with Y271A

GAL2R mutants [5] = molecular target: T6, GAL2R mutants (Homo sapiens, UniProt O43603, L255A); assay: Calcium assay, HEK293/Gα16 cells, GAL2R mutants; conditions: GAL2R L2556.54A, spexin
T6 construct: expressed in transfected cells; host or cells: HEK293
T6 sequence (O43603 1-387 L255A): T1 sequence (O43603 1-387) with L255A

## spexin
GAL2R
  EC50: 195 ± 71 nM
GAL2R mutants [1]
  EC50: 8660 ± 279 nM
GAL2R mutants [2]; replicate 1
  EC50: no response
GAL2R mutants [2]; replicate 2
  EC50: no response
GAL2R mutants [2]; replicate 3
  EC50: no response
GAL2R mutants [3]; HEK293/Gα16, mean ± S.E.M.
  EC50: 4710 ± 1560 nM
GAL2R mutants [3]; replicate 3
  EC50: 1827 nM
GAL2R mutants [4]
  EC50: 2760 ± 1610 nM
GAL2R mutants [5]; HEK293/Gα16, mean ± S.E.M.
  EC50: 1770 ± 1240 nM
GAL2R mutants [5]; replicate 1
  EC50: 4220 nM
